Results as given in patent publication US9326994B2, “Amine functional polyamides” (GENZYME CORPORATION, priority 2013, dated 2016).

These substances were tested on renal proximal tubule epithelial cells (RPTEC).
Type: cell-based
Procedure: Cells were plated at 3,000 cells/well (RPTEC) or 5,000 cells/well (NHDF) in 96-well plates and incubated overnight at 37° C. The compounds were added to the wells, and the cells were incubated for 4 days. Alomar Blue was added to one set of plates and incubated for 4 hours. The plates were read when the compound was added (time zero) and at the end of the study. Fluorescence was read using 530 nm (excitation) and 590 nm (emission) according to the manufacturer's instructions.

Compared with “Guanidine terminated poly(4,4-trimethylene dipiperidinebispropanoic acid-diaminopropane)”, “Poly(4,4-trimethylene dipiperidinebispropanoic acid-diaminopropane) (guanidine ended)” is higher in “Cytotoxicity (Kidney Epithelial IC50)” value: 1 for the first, 2 for the second.

For “Poly(4,4′-trimethylenedipiperidine bisethylacrylamide-co-1-amino-3-guanidine propane)”, the “Cytotoxicity (Kidney Epithelial IC50)” value was 22.
